For 4 compounds, IC50 results are on record in patent publication US10059687B2, “Histone demethylase inhibitors” (CELGENE QUANTICEL RESEARCH, INC., priority 2015, dated 2018).

The term pIC50 denotes the IC50 on a negative log10 scale, so that one unit is a factor of ten. A lower pIC50 goes with a high IC50.

The assay addresses JMJD3 (Homo sapiens, UniProt O15054). Nature of the assay: In vitro enzyme inhibition assay for JMJD3 activity (TR-FRET). In kind it is biochemical. As to the method: This assay determines the ability of a test compound to inhibit JMJD3 demethylase activity. Baculovirus expressed JMJD3 (GenBank Accession #NM-001080424, AA1043-end) was purchased from BPS Bioscience (Cat#50115).
The enzymatic assay of JMJD3 activity is based upon Time Resolved-Fluorescence Resonance Energy Transfer (TR-FRET) detection. The ability of test compounds to inhibit the activity of JMJD3 was determined in 384-well plate format under the following reaction conditions: 5 nM JMJD3, 250 nM H3K27me3-biotin labeled peptide (Anaspec cat #64367), 0.4 to 2 μM α-ketoglutaric acid in assay buffer of 50 mM HEPES, pH7.3, 0.005% Brij35, 0.5 mM TCEP, 0.2 mg/ml BSA, 50 μM sodium L-ascorbate, and 5 μM ammonium iron(II) sulfate. Reaction product was determined quantitatively by TR-FRET after the addition of detection reagent Phycolink Streptavidin-allophycocyanin (Prozyme) and Europium-anti-H3K27me2 antibody (PerkinElmer) in the presence of 5 mM EDTA in LANCE detection buffer (PerkinElmer) at a final concentration of 50 nM and 1 nM, respectively.
The assay reaction was initiated by the following: […] of the mixture of 750 nM H3K27me3-biotin labeled peptide and 1.2 to 6 μM alpha-ketoglutaric acid with 2 μL of 11-point serial diluted inhibitor in 3% DMSO were added to each well of plate, followed by the addition of 2 μl of 15 nM JMJD3 to initiate the reaction. The reaction mixture was incubated at RT for 30 min, and terminated by the addition of 6 μL of 5 mM EDTA in LANCE detection buffer containing 100 nM Phycolink Streptavidin-allophycocyanin and 2 nM Europium-anti-H3K27me2 antibody. Plates were read by EnVisionMultilabel Reader in TR-FRET mode (excitation at 320 nm, emission at 615 nm and 665 nm) after 1 hr incubation at RT. A ratio from the readout of 665/615 was calculated for each well and fitted to determine inhibition constant (IC50).

The mark [1] stands for this setting: Table 4, cell gives A/B enantiomer values.
The mark [2] stands for this setting: Table 5, one class given per A and B pair.

pIC50: −log10 of the molar value.

Take `Cc1ccc(N(C)c2ccc3c(c2)CCN[C@@H]3CNc2cnccc2C(=O)O)cc1` [Example 1A, 3-[({(1S)-6-[methyl(4-methylphenyl)amino]-1,2,3,4-tetrahydroisoquinolyl}methyl)amino]pyridine-4-carboxylic acid]: the pIC50 under setting [1] was 6.00 to 7.00 and the negative-log IC50 (pIC50) under setting [2] is 5.00 to 6.00.

For the compound `Cc1ccc(N(C)c2ccc3c(c2)CCN[C@H]3CNc2cnccc2C(=O)O)cc1` [Example 1B, 3-[({(1R)-6-[methyl(4-methylphenyl)amino]-1,2,3,4-tetrahydroisoquinolyl}methyl)amino]pyridine-4-carboxylic acid], the pIC50 by setting is: under setting [1], 6.00 to 7.00; under setting [2], 5.00 to 6.00.

`Cc1ccc(N(C)c2ccc3c(c2)CN[C@@H]3CNc2cnccc2C(=O)O)cc1` [Example 5A, 3-[({(1S)-5-[methyl(4-tolyl)amino]isoindolinyl}methyl)amino]pyridine-4-carboxylic acid]: the negative logarithm of the IC50 (pIC50) by setting is: under setting [1], 6.00 to 7.00; under setting [2], 5.00 to 6.00.

For `Cc1ccc(N(C)c2ccc3c(c2)CN[C@H]3CNc2cnccc2C(=O)O)cc1` [Example 5B, 3-[({(1R)-5-[methyl(4-tolyl)amino]isoindolinyl}methyl)amino] pyridine-4-carboxylic acid], the pIC50 is 6.00 to 7.00 under setting [1] and 5.00 to 6.00 under setting [2].
